In patent US20080019909A1, “Modulation of Programmed Necrosis” (priority 2003, published 2008):

Test system: caspase-8 -/- J3.2 cells
Assay: TNF cytotoxic assay (cell loss by PI exclusion on FACS), caspase-8 -/- J3.2 cells
Settings: caspase 8 -/- J3.2 cells transfected with plasmids; 12 hours stimulation with TNF

XLAP: known apoptosis inhibitor, transfected plasmid
TNF-induced programmed necrosis, transfected apoptosis inhibitors: failed to confer protection
